ChEMBL document CHEMBL5634122, “Integrated fragment-based drug design and virtual screening techniques for exploring the antidiabetic potential of thiazolidine-2,4-diones: Design, synthesis and in vivo studies” (Eur J Med Chem, 2023)

Legend:
Type in all cases: functional, organism-based
Mus musculus = experiment: Antidiabetic activity in STZ-induced Swiss albino diabetic mouse model assessed as reduction in blood glucose levels at 36 mg/kg, po measured after 0 to 120 mins by oral glucose tolerance test; conditions: time 0-120 min
Danio rerio [1] = experiment: Antidiabetic activity in STZ-induced Zebra fish diabetic model assessed as increase in body weight at 36 mg/kg measured after 10 days; conditions: time 10.0 day
Danio rerio [2] = experiment: Antioxidant activity in STZ-induced Zebra fish diabetic model assessed as reduction in lipid peroxidation level at 36 mg/kg measured after 10 days; conditions: time 10.0 day
Danio rerio [3] = experiment: Antioxidant activity in STZ-induced Zebra fish diabetic model assessed as increase in GSH level at 36 mg/kg measured after 10 days by Ellman method; conditions: time 10.0 day
Danio rerio [4] = experiment: Antioxidant activity in STZ-induced Zebra fish diabetic model assessed as increase in catalase level at 36 mg/kg measured after 10 days by spectrophotometry; conditions: time 10.0 day

CCc1ccc(CCOc2ccc(CC3SC(=O)NC3=O)cc2)nc1 (stereo not given) [PIOGLITAZONE]
Activity (Mus musculus): Active | Activity (Danio rerio [1]): inactive | Activity (Danio rerio [2]): Active | Activity (Danio rerio [3]): Active | Activity (Danio rerio [4]): Active

Activity calls are given as the source filed them. The rule behind the calls is not given here.
